This passage reports Ki results from ChEMBL document CHEMBL1133538, “7-Deazaadenines bearing polar substituents: structure-activity relationships of new A(1) and A(3) adenosine receptor antagonists” (J Med Chem, 2000).

Protein sequences, listed by entry. Tags and fused reporters are not part of them.
UniProt P25099, whole entry: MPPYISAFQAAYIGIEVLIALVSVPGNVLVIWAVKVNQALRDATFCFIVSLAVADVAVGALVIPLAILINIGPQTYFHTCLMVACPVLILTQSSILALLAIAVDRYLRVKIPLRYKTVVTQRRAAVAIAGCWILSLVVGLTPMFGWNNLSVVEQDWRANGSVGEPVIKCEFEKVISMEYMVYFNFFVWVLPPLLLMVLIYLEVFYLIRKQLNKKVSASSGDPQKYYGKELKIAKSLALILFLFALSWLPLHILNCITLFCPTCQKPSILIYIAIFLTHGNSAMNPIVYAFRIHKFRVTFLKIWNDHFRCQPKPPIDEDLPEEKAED

For this assay, the target named is Adenosine receptor A1 (Rattus norvegicus, UniProt P25099). The experiment in a line: Tested for its binding affinity at adenosine A1 receptor in rat brain cortical membrane preparations using [3H]CCPA as a radioligand. The class given is cell membranes. In outline:
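Rat brain cortical membranes, A1 agonist radioligand [3H]CCPA at 0.5 nM. Compounds dissolved in DMSO, diluted into aqueous buffer, tested at 5-7 concentrations in triplicate, at least three separate experiments. IC50 from nonlinear curve fitting, converted to Ki with Cheng-Prusoff using KD 0.2 nM.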

Molecules are shown by their SMILES.

`Nc1nc(-c2cccnc2)nc2c1c1c(n2-c2ccccc2)CCCC1` yielded a Ki of 7.9 µM.

A word on the Ki: it is a measure of affinity in units of concentration, obtained from inhibition or displacement. A high value points to lower affinity.
